Experimental findings from PMC8335659 are described below.

First the molecules themselves.
B1: GluA1 [mouse (endogenous in cultured hippocampal neurons)] / FLAG-tagged μ2 [mouse] (parent)
chain 1: ANFPNNIQIGGLFPNQQSQEHAAFRFALSQLTEPPKLLPQIDIVNISDSFEMTYRFCSQFSKGVYAIFGFYERRTVNMLTSFCGALHVCFITPSFPVDTSNQFVLQLRPELQEALISIIDHYKWQTFVYIYDADRGLSVLQRVLDTAAEKNWQVTAVNILTTTEEGYRMLFQDLEKKKERLVVVDCESERLNAILGQIVKLEKNGIGYHYILANLGFMDIDLNKFKESGANVTGFQLVNYTDTIPARIMQQWRTSDARDHTRVDWKRPKYTSALTYDGVKVMAEAFQSLRRQRIDISRRGNAGDCLANPAVPWGQGIDIQRALQQVRFEGLTGNVQFNEKGRRTNYTLHVIEMKHDGIRKIGYWNEDDKFVPAATDAQAGGDNSSVQNRTYIVTTILEDPYVMLKKNANQFEGNDRYEGYCVELAAEIAKHVGYSYRLEIVSDGKYGARDPDTKAWNGMVGELVYGRADVAVAPLTITLVREEVIDFSKPFMSLGISIMIKKPQKSKPGVFSFLDPLAYEIWMCIVFAYIGVSVVLFLVSRFSPYEWHSEEFEEGRDQTTSDQSNEFGIFNSLWFSLGAFMQQGCDISPRSLSGRIVGGVWWFFTLIIISSYTANLAAFLTVERMVSPIESAEDLAKQTEIAYGTLEAGSTKEFFRRSKIAVFEKMWTYMKSAEPSVFVRTTEEGMIRVRKSKGKYAYLLESTMNEYIEQRKPCDTMKVGGNLDSKGYGIATPKGSALRGPVNLAVLKLSEQGVLDKLKSKWWYDKGECGSKDSGSKDKTSALSLSNVAGVFYILIGGLGLAMLVALIEFCYKSRSESKRMKGFCLIPQQSINEAIRTSTLPRNSGAGASGGSGSGENGRVVSQDFPKSMQSIPCMSHSSGMPLGATGL
chain 2: MIGGLFIYNHKGEVLISRVYRDDIGRNAVDAFRVNVIHARQQVRSPVTNIARTSFFHVKRSNIWLAAVTKQNVNAAMVFEFLYKMCDVMAAYFGKISEENIKNNFVLIYELLDEILDFGYPQNSETGALKTFITQQGIKSQHQTKEEQSQITSQVTGQIGWRREGIKYRRNELFLDVLESVNLLMSPQGQVLSAHVSGRVVMKSYLSGMPECKFGMNDKIVIEKQGKGTADETSKSGKQSIAIDDCTFHQCVRLSKFDSERSISFIPPDGEFELMRYRTTKDIILPFRVIPLVREVGRTKLEVKVVIKSNFKPSLLAQKIEVRIPTPLNTSGVQVICMKGKAKYKASENAIVWKIKRMAGMKESQISAEIELLPTNDKKKWARPPISMNFEVPFAPSGLKVRYLKVFEPKLNYSDHDVIKWVRYIGRSGIYETRC
B2: GluA1 [mouse (endogenous in cultured hippocampal neurons)] / FLAG-tagged μ3 [mouse] (parent)
chain 1: B1 chain 1
chain 2: MIHSLFLINCSGDIFLEKHWKSVVSQSVCDYFFEAQEKAADVENVPPVISTPHHYLISIYRDKLFFVSVIQTEVPPLFVIEFLHRVADTFQDYFGECSEAAIKDNVVIVYELLEEMLDNGFPLATESNILKELIKPPTILRSVVNSITGSSNVGDTLPTGQLSNIPWRRAGVKYTNNEAYFDVVEEIDAIIDKSGSTVFAEIQGVIDACIKLSGMPDLSLSFMNPRLLDDVSFHPCIRFKRWESERVLSFIPPDGNFRLISYRVSSQNLVAIPVYVKHSISFKENSSCGRFDITIGPKQNMGKTIEGITVTVHMPKVVLNMNLTPTQGSYTFDPVTKVLAWDVGKITPQKLPSLKGLVNLQSGAPKPEENPNLNIQFKIQQLAISGLKVNRLDMYGEKYKPFKGVKYVTKAGKFQVRT
B3: GluA1 [mouse (endogenous in cultured hippocampal neurons)] / stargazin [not stated] (parent)
chain 1: B1 chain 1
chain 2: MGLFDRGVQMLLTTVGAFAAFSLMTIAVGTDYWLYSRGVCKTKSVSENETSKKNEEVMTHSGLWRTCCLEGNFKGLCKQIDHFPEDADYEADTAEYFLRAVRASSIFPILSVILLFMGGLCIAASEFYKTRHNIILSAGIFFVSAGLSNIIGIIVYISANAGDPSKSDSKKNSYSYGWSFYFGALSFIIAEMVGVLAVHMFIDRHKQLRATARATDYLQASAITRIPSYRYRYQRRSRSSSRSTEPSHSRDASPVGVKGFNTLPSTEISMYTLSRDPLKAATTPTATYNSDRDNSFLQVHNCIQKDSKDSLHANTANRRTTPV

The variants in one experiment derive from B1. As to the kind of experiment: coimmunoprecipitation (IP anti-GluA1, IB FLAG), band intensity quantified. The conditions noted are these: with FLAG-tagged μ2 [mouse]; HEK293 cells coexpressing STG, GluA1 mutant and FLAG-µ2; normalised to GluA1DDDD = 100; n = 4; n.s.; read off a plot.
For chain 1 S816A S818A S831A S845A, the screen value (% of GluA1DDDD) worked out at 93.

The same experiment, now with this note: with FLAG-tagged μ2 [mouse]; HEK293 cells coexpressing STG, GluA1 mutant and FLAG-µ2; this bar is the normalisation reference (set to 100); n = 4; read off a plot.
For the variant chain 1 S816D S818D S831D S845D, the screen value (% of GluA1DDDD) stood at 100.

In another experiment the parent is B2. The experiment is described as above. Conditions: with FLAG-tagged μ3 [mouse]; HEK293 cells coexpressing STG, GluA1 mutant and FLAG-µ3; normalised to GluA1DD = 100; n = 5; p < 0.01; read off a plot.
Consider chain 1 S816A S818A, for which the screen value is 150 % of GluA1DD.

The same experiment, now with this note: with FLAG-tagged μ3 [mouse]; HEK293 cells coexpressing STG, GluA1 mutant and FLAG-µ3; normalised to GluA1DDAA = 100; n = 6; p < 0.05; read off a plot.
Regarding chain 1 S816A S818A S831D S845D, the screen value (% of GluA1DDAA) amounted to 130.

The same experiment, now with this note: with FLAG-tagged μ3 [mouse]; HEK293 cells coexpressing STG, GluA1 mutant and FLAG-µ3; this bar is the normalisation reference (set to 100); n = 4; read off a plot.
For chain 1 S816D S818D S831D S845D, the screen value (% of GluA1DDDD) amounted to 100.

Staying with this experiment, now noted: with FLAG-tagged μ3 [mouse]; HEK293 cells coexpressing STG, GluA1 mutant and FLAG-µ3; this bar is the normalisation reference (set to 100); n = 5; read off a plot.
In the case of chain 1 S816D S818D, the screen value is 100 % of GluA1DD.

The experiment is the same for the next values; noted with them: with FLAG-tagged μ3 [mouse]; HEK293 cells coexpressing STG, GluA1 mutant and FLAG-µ3; this bar is the normalisation reference (set to 100); n = 6; read off a plot.
As to chain 1 S816D S818D S831A S845A, the screen value (% of GluA1DDAA) was found to be 100.

The same experiment, now with this note: with FLAG-tagged μ3 [mouse]; HEK293 cells coexpressing STG, GluA1 mutant and FLAG-µ3; normalised to GluA1DDDD = 100; n = 4; p < 0.05; read off a plot.
Take chain 1 S816A S818A S831A S845A: the screen value (% of GluA1DDDD) was found to be 150.

Variants of B3 are the subject of a further experiment. As to the kind of experiment: coimmunoprecipitation (IP anti-GluA1, IB STG), band intensity quantified. Conditions: with stargazin; HEK293 cells coexpressing STG, GluA1 mutant and FLAG-µ2; bottom right chart; GluA1DDDD bar = 100; n.s.; read off a plot.
Consider chain 1 S816A S818A S831A S845A, for which the screen value came out at 110.

Staying with this experiment, now noted: with stargazin; HEK293 cells coexpressing STG, GluA1 mutant and FLAG-µ3; bottom right chart; GluA1DDDD bar = 100; n.s.; read off a plot.
With chain 1 S816A S818A S831A S845A, the screen value turned out to be 95.

Staying with this experiment, now noted: with stargazin; HEK293 cells coexpressing STG, GluA1 mutant and FLAG-µ3; bottom right chart; GluA1DD bar = 100; n.s.; read off a plot.
Turning to chain 1 S816A S818A, the screen value amounted to 120.

Still in this experiment, the particulars now being: with stargazin; HEK293 cells coexpressing STG, GluA1 mutant and FLAG-µ3; bottom right chart; this bar is the normalisation reference (100); read off a plot.
As for chain 1 S816D S818D, the screen value came to 100. For the variant chain 1 S816D S818D S831D S845D, the screen value turned out to be 100. Still for that read-out and setting: the same measure for chain 1 S816D S818D S831A S845A: 100.

Staying with this experiment, now noted: with stargazin; HEK293 cells coexpressing STG, GluA1 mutant and FLAG-µ3; bottom right chart; GluA1DDAA bar = 100; n.s.; read off a plot.
In the case of chain 1 S816A S818A S831D S845D, the screen value worked out at 83.

Staying with this experiment, now noted: with stargazin; HEK293 cells coexpressing STG, GluA1 mutant and FLAG-µ2; bottom right chart; this bar is the normalisation reference (100); read off a plot.
Regarding chain 1 S816D S818D S831D S845D, the screen value is 100.
